Measured values from ChEMBL document CHEMBL5543069, “DW71177: A novel [1,2,4]triazolo[4,3-a]quinoxaline-based potent and BD1-Selective BET inhibitor for the treatment of acute myeloid leukemia” (Eur J Med Chem, 2024).
Values belong to the molecule of their own block, whether it stands above or below them.

Key:
Ty-82 = test: Cytotoxicity against human Ty-82 cells assessed as growth inhibition incubated for 72 hrs by WST-1 assay; conditions: TY82, 72 h
T-24 = test: Antiproliferative activity against human T24 cells assessed as growth inhibition incubated for 72 hrs by WST-1 assay; conditions: T-24, 72 h
K562 = test: Antiproliferative activity against human K562 cells assessed as growth inhibition incubated for 72 hrs by WST-1 assay; conditions: K562, 72 h
NCI-H1666 = test: Antiproliferative activity against human NCI-H1666 cells assessed as growth inhibition incubated for 72 hrs by WST-1 assay; conditions: NCI-H1666, 72 h
THP-1 = test: Antiproliferative activity against human THP-1 cells assessed as growth inhibition incubated for 72 hrs by WST-1 assay; conditions: THP-1, 72 h
in vivo [1] = conditions: rat, po, 20 mg/kg
[2] = Antiproliferative activity against human SNU-2535 cells assessed as growth inhibition incubated for 72 hrs by WST-1 assay; conditions: SNU-2535, 72 h
in vivo [3] = conditions: rat, po, 20 mg/kg; remark: listed apart in the source
SUD4 = test: Antiproliferative activity against human SU-DHL-4 cells assessed as growth inhibition incubated for 72 hrs by WST-1 assay; conditions: SU-DHL-4, 72 h
in vivo [4] = conditions: rat, po, 20 mg/kg; remark: listed apart in the source
MOLT-4 = test: Antiproliferative activity against human MOLT-4 cells assessed as growth inhibition incubated for 72 hrs by WST-1 assay; conditions: MOLT-4, 72 h
NCI-H1975 = test: Antiproliferative activity against human NCI-H1975 cells assessed as growth inhibition incubated for 72 hrs by WST-1 assay; conditions: NCI-H1975, 72 h
Daudi = test: Antiproliferative activity against human Daudi cells assessed as growth inhibition incubated for 72 hrs by WST-1 assay
KU-19-19 = test: Antiproliferative activity against human KU-19-19 cells assessed as growth inhibition incubated for 72 hrs by WST-1 assay; conditions: KU-19-19, 72 h
U2932 = test: Antiproliferative activity against human U2932 cells assessed as growth inhibition incubated for 72 hrs by WST-1 assay; conditions: U2932, 72 h
Pfeiffer = test: Antiproliferative activity against human Pfeiffer cells assessed as growth inhibition incubated for 72 hrs by WST-1 assay
MV4-11 = test: Cytotoxicity against human MV4-11 cells assessed as growth inhibition incubated for 72 hrs by WST-1 assay; conditions: MV4-11, 72 h
in vivo [5] = conditions: rat, po, 20 mg/kg; remark: listed apart in the source
in vivo [6] = conditions: rat, po, 20 mg/kg; remark: listed apart in the source
LS-1034 = test: Antiproliferative activity against human LS1034 cells assessed as growth inhibition incubated for 72 hrs by WST-1 assay; conditions: LS-1034, 72 h
Raji = test: Antiproliferative activity against human Raji cells assessed as growth inhibition incubated for 72 hrs by WST-1 assay

SMILES: Cc1nnc2c(NCCCNC(=O)OC(C)(C)C)nc3ccccc3n12
GI50 (Ty-82): 3.5 µM

SMILES: Cc1nnc2c(NCCCCCNC(=O)OC(C)(C)C)nc3ccccc3n12
GI50 (Ty-82): 5.2 µM

GI50 (K562): > 10 µM | GI50 (NCI-H1666): > 10 µM | GI50 (THP-1): 0.05 µM | AUC(0-t) (in vivo [1]): 3610 ng·h/mL | half-life (in vivo [3]): 78 min | Cmax (in vivo [4]): 3050 ng/mL | GI50 (MOLT-4): > 10 µM | GI50 (NCI-H1975): > 10 µM | GI50 (Daudi): 2.4 µM | Tmax (in vivo [5]): 30 min | AUC(0-inf) (in vivo [6]): 3870 ng·h/mL | GI50 (Raji): > 10 µM
SMILES: COc1ccc2c(c1)nc(NCCCCNC(=O)CC(C)C)c1nnc(C)n12
GI50 (T-24): 5 µM | GI50 [2]: > 10 µM | GI50 (SUD4): 3.3 µM | GI50 (Ty-82): 0.091 µM | GI50 (KU-19-19): 9.1 µM | GI50 (U2932): > 10 µM | GI50 (Pfeiffer): 0.48 µM | GI50 (MV4-11): 0.05 µM | GI50 (LS-1034): > 10 µM

SMILES: Cc1nnc2c(NCCNC(=O)OC(C)(C)C)nc3ccccc3n12
GI50 (Ty-82): 5 µM
